The text below walks through data of ChEMBL document CHEMBL1121693 (1981).

The test system of assay [1] is Mus musculus. Kind of assay: Number of mice convulsed after intraperitoneal administration of Compound at a dose of 262 umol/kg; total no. of mice tested is 5.
For assay [2], the system named is Mus musculus. Kind of assay: Number of mice convulsed after intraperitoneal administration of Compound at a dose of 328 umol/kg; total no. of mice tested is 5.
Assay [3] relates to Mus musculus. Kind of assay: Number of mice convulsed after intraperitoneal administration of Compound at a dose of 512 umol/kg; total no. of mice tested is 5.
For assay [4], the system named is Mus musculus. Kind of assay: Number of mice convulsed after intraperitoneal administration of Compound at a dose of 410 umol/kg; total no. of mice tested is 5.

In the case of `O[C@H]1CC[C@](c2ccccc2)(N2CCCCC2)CC1`, the figures for the No. of mice in the assay with Mus musculus [1], in the assay on Mus musculus [2] and in the assay on Mus musculus [3] were 0, 0 and 3, respectively.

Consider `O[C@H]1CC[C@@](c2ccccc2)(N2CCCCC2)CC1`, for which the No. of mice in the assay with Mus musculus [1] turned out to be 0; in the assay with Mus musculus [4] it was 2; with Mus musculus [2], 0; in the assay on Mus musculus [3], 5.
